How the values were obtained:
human TNFα [1] = molecular target: T1, human TNFα (human, UniProt P01375 77-233); test: SPR, BIAcore 3000 kinetics
T1 construct: also called huTNF; hTNFα

The chains behind the UniProt entries cited, without tags or fusion partners. Residues count along the entry.
UniProt P01375, 77-233 limits assumed: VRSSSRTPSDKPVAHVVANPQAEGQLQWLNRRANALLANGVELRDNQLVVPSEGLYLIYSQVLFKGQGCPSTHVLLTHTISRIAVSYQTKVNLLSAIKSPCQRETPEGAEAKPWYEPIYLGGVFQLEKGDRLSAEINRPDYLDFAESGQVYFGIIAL

human TNFα [2] = molecular target: T1, human TNFα; test: SPR, BIAcore 3000; agent captured by goat anti-human Fc, huTNF as analyte

B1: Infliximab (Remicade) (antibody, V domains shown)
VH: EVKLEESGGGLVQPGGSMKLSCVASGFIFSNHWMNWVRQSPEKGLEWVAEIRSKSINSATHYAESVKGRFTISRDDSKSAVYLQMTDLRTEDTGVYYCSRNYYGSTYDYWGQGTTLTVSS
VL: DILLTQSPAILSVSPGERVSFSCRASQFVGSSIHWYQQRTNGSPRLLIKYASESMSGIPSRFSGSGSGTDFTLSINTVESEDIADYYCQQSHSWPFTFGSGTNLEVKR
- half-life of complex (human TNFα [1]): 3.07 h
- Kd (human TNFα [2]): 0.0945 nM
- koff (human TNFα [2]): 6.29e-05 s⁻¹
- kon (human TNFα [2]): 671000 M⁻¹ s⁻¹
